Results on one molecule are retold here after ChEMBL document CHEMBL1130430, “Assessment of solvation effects on calculated binding affinity differences: trypsin inhibition by flavonoids as a model system for congeneric series” (J Med Chem, 1997).

For this experiment, the target named is T1, Serine protease 1 (Bos taurus, UniProt P00760).
T1 sequence (P00760 whole entry): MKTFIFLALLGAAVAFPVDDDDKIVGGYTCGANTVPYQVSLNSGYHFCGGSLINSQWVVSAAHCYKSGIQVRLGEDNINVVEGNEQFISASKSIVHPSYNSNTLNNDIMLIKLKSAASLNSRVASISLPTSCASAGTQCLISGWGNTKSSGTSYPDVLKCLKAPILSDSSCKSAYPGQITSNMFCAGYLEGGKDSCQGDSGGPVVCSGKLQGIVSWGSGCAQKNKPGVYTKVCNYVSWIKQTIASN
As to the kind of experiment: Inhibitory concentration of the compounds against Bovine trypsin enzyme.

Molecule `O=c1c(O)c(-c2ccc(O)c(O)c2)oc2cc(O)cc(O)c12` [QUERCETIN] came in with an IC50 of 7.1 µM. This counts as single-digit micromolar.
